Results reported in PubChem BioAssay AID800 (PCMD, 2007).
This is a selection; strong and weak results do not stand in their true shares. Calls of active or inactive are those of the source. Rule as the data show it: active = inhibition above about 40%; inactive = the rest.

Sequences of proteins named here, by UniProt entry; tags and fusion partners are left off. Residues count along the entry.
UniProt P00748, 20-372 limits assumed: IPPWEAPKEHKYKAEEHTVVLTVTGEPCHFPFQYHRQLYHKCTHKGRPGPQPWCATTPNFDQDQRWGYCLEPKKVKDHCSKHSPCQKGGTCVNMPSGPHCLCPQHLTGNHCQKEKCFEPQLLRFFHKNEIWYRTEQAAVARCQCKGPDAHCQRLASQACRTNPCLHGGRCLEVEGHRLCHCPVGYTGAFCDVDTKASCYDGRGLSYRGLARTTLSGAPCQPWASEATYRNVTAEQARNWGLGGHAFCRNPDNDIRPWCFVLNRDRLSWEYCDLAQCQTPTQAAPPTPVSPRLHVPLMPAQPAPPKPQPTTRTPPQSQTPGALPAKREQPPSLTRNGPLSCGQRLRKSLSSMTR
UniProt P00748, 373-615 limits assumed: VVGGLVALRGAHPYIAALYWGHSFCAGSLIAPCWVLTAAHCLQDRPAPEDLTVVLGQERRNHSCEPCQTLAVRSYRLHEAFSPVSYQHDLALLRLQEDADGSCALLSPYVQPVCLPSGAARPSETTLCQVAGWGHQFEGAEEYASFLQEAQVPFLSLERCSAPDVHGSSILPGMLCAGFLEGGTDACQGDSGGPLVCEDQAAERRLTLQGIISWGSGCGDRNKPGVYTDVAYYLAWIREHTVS

molecular target: Coagulation factor XII (Homo sapiens) (UniProt P00748); assay: human FXIIa protease inhibitors, primary screen, biochemical, 1536-well (AID 800); conditions: purified FXIIa, Boc-QGR-AMC fluorogenic substrate, 2 h; at 5 µM; hits give high values;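 also: 0% = enzyme with no compound and 100% = blank without enzyme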

SMILES | inhibition
CP(=O)(Nc1cccc(Br)c1)Oc1ccccc1 (centres undefined) | inactive: 10.6%
Cc1ccc(C)c(NP(C)(=O)Oc2ccccc2)c1 (centres undefined) | inactive: 16.9%
CCN(CC)CCCOC(=O)C(O)(c1ccccc1)c1ccccc1 | inactive: 9.78%
CC(C)(C)c1ccc(OP(C)(=O)Nc2ccc(SC(F)(F)F)cc2)cc1 (centres undefined) | inactive: 16.4%
Cc1cccc(C)c1OP(C)(N)=O (centres undefined) | inactive: 4.03%
O=[N+]([O-])c1ccc2c(c1)C=Nc1ccccc1O2 | inactive: 6.46%
CCOC(=O)c1ccc(NP(C)(=O)Oc2ccccc2)cc1 (centres undefined) | inactive: 6.12%
COc1ccccc1OP(C)(=O)Nc1ccc(C)cc1 (centres undefined) | inactive: 22.8%
Cc1ccc(NP(C)(=O)Oc2ccccc2)c(C)c1 (centres undefined) | inactive: 3.06%
COc1ccccc1OP(C)(=O)Nc1cc(Cl)ccc1C (centres undefined) | inactive: 0.5%
COc1ccc(OP(C)(=O)Nc2cccc(F)c2)cc1 (centres undefined) | inactive: 10.9%
Cc1cc(C)cc(OP(C)(N)=O)c1 (centres undefined) | inactive: 12%
CP(=S)(Nn1cnnc1)Oc1ccccc1 (centres undefined) | inactive: 14.6%
COc1ccccc1OP(C)(=O)Nc1ccccc1 (centres undefined) | inactive: -10.1%
CP(=O)(Nc1ccccc1Br)Oc1ccccc1 (centres undefined) | inactive: 10.6%
CP(=O)(Nc1ccc(SC(F)(F)F)cc1)Oc1ccc(Cl)cc1 (centres undefined) | inactive: 11.8%
Cc1cccc(C)c1OP(C)(=O)Nc1ccc(SC(F)(F)F)cc1 (centres undefined) | inactive: 5.76%
CP(=O)(Oc1ccccc1)OC(c1ccccc1)C(F)(F)F (centres undefined) | inactive: 10.8%
CP(=O)(NC(=O)Nc1ccccc1)Oc1ccccc1 (centres undefined) | inactive: 18%
CCc1ccc(OP(C)(=O)N2CCN(c3ccc([N+](=O)[O-])cc3)CC2)cc1 (centres undefined) | inactive: 4.77%
Cc1cc(C)cc(OP(C)(=O)Nc2ccc(SC(F)(F)F)cc2)c1 (centres undefined) | inactive: 6.97%
CCOP(C)(=S)SCC(=O)NC(C)C(=O)O (centres undefined) | inactive: 11.7%
CCOC(=O)c1ccc(NP(C)(=O)Oc2ccc(OC)cc2)cc1 (centres undefined) | inactive: 3.3%
CP(=O)(Nc1ccccn1)Oc1ccc(Cl)cc1 (centres undefined) | inactive: -16.3%
